We go through two compounds from patent US20240270809A1, “ORAL GLP RECEPTOR AGONISTS” (priority 2020, published 2024).

By UniProt entry, the sequences of proteins in these tests, tags left out. Residues count along the entry.
UniProt P43220, 24-463: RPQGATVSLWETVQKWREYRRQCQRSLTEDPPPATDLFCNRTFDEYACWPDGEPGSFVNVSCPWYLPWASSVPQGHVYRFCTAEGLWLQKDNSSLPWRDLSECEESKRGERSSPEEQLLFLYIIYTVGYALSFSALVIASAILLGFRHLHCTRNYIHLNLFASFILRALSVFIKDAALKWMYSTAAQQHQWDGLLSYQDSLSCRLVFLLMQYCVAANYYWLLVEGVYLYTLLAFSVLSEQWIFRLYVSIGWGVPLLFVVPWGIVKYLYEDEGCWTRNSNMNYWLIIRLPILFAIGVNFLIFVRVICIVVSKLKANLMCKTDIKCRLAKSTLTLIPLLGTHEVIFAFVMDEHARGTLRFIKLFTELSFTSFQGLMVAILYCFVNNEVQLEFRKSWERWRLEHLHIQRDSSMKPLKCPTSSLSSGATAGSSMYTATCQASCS

The target of one data set is T1, human GLP2 receptor (Homo sapiens, UniProt O95838).
T1 construct: expressed in transfected cells; host or cells: HEK cells, BacMam virus transduction
T1 sequence (O95838 1-553): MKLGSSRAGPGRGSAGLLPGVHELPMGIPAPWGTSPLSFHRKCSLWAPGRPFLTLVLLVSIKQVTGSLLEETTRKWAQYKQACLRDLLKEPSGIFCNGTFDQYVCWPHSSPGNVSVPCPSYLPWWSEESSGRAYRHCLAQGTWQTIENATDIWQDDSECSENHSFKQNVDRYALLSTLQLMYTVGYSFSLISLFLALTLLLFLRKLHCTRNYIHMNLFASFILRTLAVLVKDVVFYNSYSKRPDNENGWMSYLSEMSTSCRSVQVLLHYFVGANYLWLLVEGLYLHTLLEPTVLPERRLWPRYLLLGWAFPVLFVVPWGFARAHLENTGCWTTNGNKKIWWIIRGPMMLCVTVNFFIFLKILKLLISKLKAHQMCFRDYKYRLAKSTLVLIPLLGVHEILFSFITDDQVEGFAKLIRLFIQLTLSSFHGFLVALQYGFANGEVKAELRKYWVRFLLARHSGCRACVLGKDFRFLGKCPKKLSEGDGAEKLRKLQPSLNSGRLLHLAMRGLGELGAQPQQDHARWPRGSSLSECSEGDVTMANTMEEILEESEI
Briefly: cAMP accumulation assay, functional agonism of human GLP2 receptor. Conditions: for Emax: HEK293, read-out: Human GLP-2R agonist cAMP Emax. It counts as cell-based. As to the method: (§1) CAMP production upon agonist stimulation of human GLP2 or GLP1 receptor was assessed utilizing HiRange cAMP kit (Cisbio). In brief, HEK cells were infected with either human GLP2 or GLP1 receptor BacMam virus for 24 hours and frozen for later use in the assay. […] Cells were prepared in the assay buffer (HBSS (Lonza) supplemented with 0.5 mM IBMX (Tocris)). After 45 min incubation at 37° C., the reaction was stopped by addition of the HTRF detection reagents in the lysis buffer provided in the kit.
For orientation: Cyclic AMP is a second messenger, typically raised through Gs and lowered through Gi signalling.

The next data set deals with T2, human GLP1 receptor (Homo sapiens, UniProt P43220).
T2 construct: expressed in transfected cells; host or cells: HEK cells, BacMam virus transduction
The data set is described as follows: cAMP accumulation assay, functional agonism of human GLP1 receptor. Type of data set: cell-based. Conditions: for Emax: HEK293, read-out: Human GLP-1R agonist cAMP Emax. As to the method:
as §1

Data set [1] is described as follows: Stability of peptides in Fasted-State Simulated Intestinal Fluid (FaSSIF). It counts as in vitro ADME. The following applies: FaSSIF with 10 mg/ml pancreatin; t=30 mins, 37° C., pH 6.5, 10 mg/ml pancreatin.
Data set [2] can be described thus: Stability of peptides in Fasted-State Simulated Gastric Fluid (FaSSGF). Type of data set: in vitro ADME. The following applies: FaSSGF with 0.1 mg/ml pepsin; t=30 mins, 37° C., pH 1.6, 0.1 mg/ml pepsin.
The nature of data set [3]: Stability of peptides in rat intestinal fluid (ratIF). The following applies: Sprague Dawley, undiluted rat small intestinal fluid (ratIF).

The term EC50 denotes the concentration needed to bring the measured effect to its halfway point. High values mean weaker potency, low ones greater potency. The Emax is the greatest response seen or fitted, relative to the assay's reference. As to `CCCC[C@H](NC(=O)[C@H](CCC(=O)O)NC(=O)[C@@H]1CC(=O)NCCCC[C@H](NC(=O)[C@H](Cc2nn[nH]n2)NC(=O)C(C)(C)C(=O)NCCc2c[nH]cn2)C(=O)N[C@@H](CO)C(=O)N[C@@H](Cc2ccccc2)C(=O)N[C@@H](CO)C(=O)N1)C(=O)N[C@H](Cc1ccccc1)C(=O)N[C@H]1CCC(=O)NCCCC[C@@H](C(=O)N[C@@H](CCCCN)C(=O)N[C@@H](C)C(=O)N[C@@H](C)C(=O)NC(C)(C)C(=O)N[C@@H](CC(=O)O)C(=O)N[C@@H](Cc2ccccc2)C(=O)N[C@H](C(=O)N[C@H]2CCC(=O)NCCCC[C@@H](C(=O)N[C@H]3CCC(=O)NCCCC[C@@H](C(N)=O)NC(=O)[C@H]([C@@H](C)O)NC(=O)[C@H]([C@@H](C)CC)NC(=O)[C@H](CCCCN)NC3=O)NC(=O)[C@H]([C@@H](C)CC)NC(=O)[C@H](CC(C)C)NC(=O)[C@H](Cc3c[nH]c4ccccc34)NC2=O)[C@@H](C)CC)NC(=O)[C@H](CC(=O)O)NC(=O)[C@H](CC(C)C)NC(=O)[C@H]([C@@H](C)CC)NC1=O` [Example 41], the concentration giving a half-maximal response (EC50) was 0.794 nM on human GLP2 receptor and 0.251 nM at human GLP1 receptor. Also, the maximum response (Emax) on human GLP2 receptor was 97.6%; on human GLP1 receptor, 95.3%.
In general, amount remaining refers to the share of the starting amount still present when the sample was taken. With `CCCC[C@H](NC(=O)[C@H](CCC(=O)O)NC(=O)[C@@H]1CC(=O)NCCCC[C@H](NC(=O)[C@H](CC(=O)O)NC(=O)C(C)(C)NC(=O)[C@@H](N)Cc2c[nH]cn2)C(=O)N[C@@H](CO)C(=O)N[C@@H](Cc2ccccc2)C(=O)N[C@@H](CO)C(=O)N1)C(=O)N[C@H](Cc1ccccc1)C(=O)N[C@H]1CCC(=O)NCCCC[C@@H](C(=O)N[C@@H](CCCCN)C(=O)N[C@@H](C)C(=O)N[C@@H](C)C(=O)NC(C)(C)C(=O)N[C@@H](CC(=O)O)C(=O)N[C@@H](Cc2ccccc2)C(=O)N[C@H](C(=O)N[C@H]2CCC(=O)NCCCC[C@@H](C(=O)N[C@H]3CCC(=O)NCCCC[C@@H](C(N)=O)NC(=O)[C@H]([C@@H](C)O)NC(=O)[C@H]([C@@H](C)CC)NC(=O)[C@H](CCCCN)NC3=O)NC(=O)[C@H]([C@@H](C)CC)NC(=O)[C@H](CC(C)C)NC(=O)[C@H](Cc3c[nH]c4ccccc34)NC2=O)[C@@H](C)CC)NC(=O)[C@H](CC(=O)O)NC(=O)[C@H](CC(C)C)NC(=O)[C@H]([C@@H](C)CC)NC1=O` [Example 39], the values for the fraction remaining at 0.5 h in data set [1], in data set [2] and in data set [3] were 100%, 100% and 12.7%, respectively. For the same compound, the EC50 on human GLP2 receptor was 0.2 nM; on human GLP1 receptor, 0.398 nM. For the same compound, the Emax at human GLP2 receptor was 105%; at human GLP1 receptor it was 92.6%.
